Read-outs that look alike come from different tables or passages of the source.
System: apoB mRNA editing
Method: Protein phosphatase inhibitor studies. […] The compounds' effects on apoB mRNA editing were evaluated by RT-PCR and poisoned-primer extension analysis (Sowden et al. Rna 2:274-88 (1996)). The effect of 470 nM cantharidin on ACF subcellular distribution was investigated by treating primary hepatocyte cultures for 6 hours followed by nuclear and cytoplasmic extract preparation.
It was reasoned that if phosphorylation of ACF regulated editing activity, treatment of rat primary hepatocytes with phosphatase inhibitors might stimulate apoB mRNA editing activity. […] The experiments (n=4-6) were done over a number of months and therefore represent primary hepatocytes from several rats.
Editing activity was quantified from primary hepatocytes incubated with 10-100-times the EC50 of the various […] (Calbiochem).

Compound: CC(C)NCC(O)c1ccc(O)c(O)c1 (stereo not drawn) [Isoproterenol]
- apoB mRNA editing, Mean (1 μM): 60.6%
- apoB mRNA editing, Mean (10 μM): 68.1%
- apoB mRNA editing, Mean (100 μM): 72.3%

Source: patent US20090075925A1, “Methods and Compositions Related to APOBEC-1 Expression” (priority 2006, published 2009)
